Reference: publication PMC8279520 (Aging and Disease, 2021)

Key:
Aβ42 = biological target: T1, Aβ42 (UniProt P05067 672-713); test: cross-linking; mixtures of GAPDH, Aβ42, tTG and cystamine incubated (12 hours by the results, 18 h at 37°C by the methods), SDS gel and Western blot with anti-Aβ antibody; details: both partners purified
T1 construct: amyloid-β peptide 1-42, cut product of the amyloid precursor protein; numbers count on: the Aβ peptide; also called amyloid-β 42; non-labeled Aβ42; source: bought: GeneCust (Switzerland)

biotinylated Aβ42 = biological target: T2, biotinylated Aβ42 (UniProt P05067 672-713, biotin (position not given)); test: ELISA; GAPDH immobilised on a 96-well plate; 30 μg/mL biotinylated Aβ42 for 1.5 h in 20 mM Tris HCl pH 7.5, 20 mM NaCl, 10 mM CaCl2; with or without tTG and cystamine; avidin-peroxidase detection; details: both partners purified
T2 construct: amyloid-β peptide 1-42, cut product of the amyloid precursor protein; numbers count on: the Aβ peptide; also called biotinylated amyloid-β 42; source: bought: GeneCust (Switzerland)

B1: glyceraldehyde-3-phosphate dehydrogenase (GAPDH) isolated from rabbit muscle (enzyme)
chain: not shown
notes: glyceraldehyde-3-phosphate dehydrogenase, rabbit muscle; also called purified GAPDH; source: isolated from rabbit muscle (provided by Dr. Muronetz)
**Q.** Does B1 bind (Aβ42)?
**A.** Result: binds

**Q.** Does B1 bind (biotinylated Aβ42)?
**A.** Result: binds
